Experimental findings from ChEMBL document CHEMBL1140324, “Rational design of non-nucleoside, potent, and orally bioavailable adenosine deaminase inhibitors: predicting enzyme conformational change and metabolism” (J Med Chem, 2005) are described below.

In this test the target is T1, Adenosine deaminase (Homo sapiens, UniProt P00813).
T1 sequence (P00813 whole entry): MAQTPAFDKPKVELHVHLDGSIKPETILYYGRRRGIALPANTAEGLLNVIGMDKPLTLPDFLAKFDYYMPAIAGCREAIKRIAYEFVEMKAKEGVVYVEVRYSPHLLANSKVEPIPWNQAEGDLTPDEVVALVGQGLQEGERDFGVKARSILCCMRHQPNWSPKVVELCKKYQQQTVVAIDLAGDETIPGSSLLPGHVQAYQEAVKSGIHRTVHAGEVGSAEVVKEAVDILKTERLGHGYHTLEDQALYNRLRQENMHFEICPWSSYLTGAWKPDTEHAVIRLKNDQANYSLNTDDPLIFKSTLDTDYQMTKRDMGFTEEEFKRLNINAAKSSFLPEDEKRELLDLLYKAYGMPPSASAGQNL
Kind of test: Inhibitory concentration against adenosine deaminase.

Each structure is given as a SMILES string.

The IC50 is the concentration that inhibits the measured activity by half. A higher IC50 goes with weaker potency in that assay. The compound `C[C@H](O)[C@@H](CCc1cccc2nc(-c3ccc(Cl)cc3)oc12)n1cnc(C(N)=O)c1` registered an IC50 of 8.6 nM.
